In the NIST ThermoML archive (doi:10.1016/j.fluid.2018.05.011):

Conditions: Liquid; Resistive pulse heating

- Critical pressure: 2710 ± 110 kPa
- Critical temperature: 814 ± 12 K
Compound: OCCOCCOCCOCCO [tetraethylene glycol]

± gives the expanded uncertainty stated by the source.
